{"source": "patent US20230312610A1", "about": "“Anti-Microbial Compositions” (5D HEALTH PROTECTION GROUP LTD, priority 2020, published 2023)", "experiment": "Concentration studies: loading of complex in aqueous solution", "assay_type": "physicochemical", "details": "clear aqueous solution of the complex as prepared", "experimental": "1.53 g DTPA was dissolved in 4.37 g demineralised water plus 2.10 g 40% NaOH to produce a DTPA sodium salt solution. 3.29 g silver nitrate was dissolved in 4.71 g demineralised water to produce a silver nitrate solution. 2.58 g copper sulphate pentahydrate was dissolved in 16.09 g demineralised water to produce a copper sulphate solution. Silver nitrate solution was added to the DPTA solution with vigorous stirring. A milky white dispersion was formed. Copper sulphate solution was added to the white dispersion. With vigorous stirring the white precipitate dissolved to give a clear, blue liquid, signifying the formation of the silver/copper DTPA mixed metal complex (MMC). […] The theoretical concentration of silver/copper DTPA MMC is 9.2% (0.15 mol/Kg). Comparative concentration studies performed on Ag/Cu EDTA MMC examples provided theoretical concentration values of 0.07-0.09 mol/Kg.\n1.11 g DTPA was dissolved in 4.59 g demineralised water plus 1.3 g 40% NaOH to produce a DTPA sodium salt solution. 2.39 g silver nitrate was dissolved in 4.61 g demineralised water to produce a silver nitrate solution. 2.08 g zinc sulphate monohydrate was dissolved in 15.92 g demineralised water to produce a zinc sulphate solution. Silver nitrate solution was added to the DTPA solution with vigorous stirring. A milky white dispersion was formed. Zinc sulphate solution was added to the white dispersion. […]", "data": [{"compound": "O=C([O-])CN(CCN(CC(=O)[O-])CC(=O)[O-])CCN(CC(=O)[O-])CC(=O)[O-].[Ag+].[Ag+].[Ag+].[Zn+2]", "note": "[silver/zinc-DTPA mixed metal complex, Ag3ZnDPTA]", "values": [{"measurement": "total soluble solids content of the solution", "value": 24.7, "unit": "% w/w"}]}, {"compound": "O=C([O-])CN(CCN(CC(=O)[O-])CC(=O)[O-])CCN(CC(=O)[O-])CC(=O)[O-].[Ag+].[Ag+].[Al+3]", "note": "[Ag2Al(DTPA)]", "values": [{"measurement": "total soluble solids content of the solution", "value": 7.2, "unit": "% w/w"}]}]}
